Molecules are shown by their SMILES.

Chains of the proteins cited; added tags and fusions are not shown.
UniProt P33533, whole entry: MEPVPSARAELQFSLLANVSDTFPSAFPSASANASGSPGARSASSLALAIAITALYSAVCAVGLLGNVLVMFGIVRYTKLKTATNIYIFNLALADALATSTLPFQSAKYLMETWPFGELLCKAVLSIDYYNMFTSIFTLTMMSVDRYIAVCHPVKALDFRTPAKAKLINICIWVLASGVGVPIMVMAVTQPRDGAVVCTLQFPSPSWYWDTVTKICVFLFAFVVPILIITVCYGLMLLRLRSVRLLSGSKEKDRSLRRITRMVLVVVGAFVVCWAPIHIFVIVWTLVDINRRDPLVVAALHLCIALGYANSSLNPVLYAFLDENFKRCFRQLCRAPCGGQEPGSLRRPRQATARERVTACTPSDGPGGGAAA
UniProt P33535, whole entry: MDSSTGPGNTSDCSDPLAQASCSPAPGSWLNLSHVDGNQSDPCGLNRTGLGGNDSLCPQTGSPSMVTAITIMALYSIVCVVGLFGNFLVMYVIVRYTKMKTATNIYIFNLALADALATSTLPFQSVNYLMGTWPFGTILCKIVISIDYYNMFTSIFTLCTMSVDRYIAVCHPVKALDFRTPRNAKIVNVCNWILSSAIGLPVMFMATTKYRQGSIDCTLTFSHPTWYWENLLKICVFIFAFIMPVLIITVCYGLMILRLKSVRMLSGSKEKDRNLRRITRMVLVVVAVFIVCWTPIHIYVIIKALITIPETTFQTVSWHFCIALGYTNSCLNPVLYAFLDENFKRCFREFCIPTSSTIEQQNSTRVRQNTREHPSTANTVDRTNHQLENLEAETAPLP
UniProt P41145, whole entry: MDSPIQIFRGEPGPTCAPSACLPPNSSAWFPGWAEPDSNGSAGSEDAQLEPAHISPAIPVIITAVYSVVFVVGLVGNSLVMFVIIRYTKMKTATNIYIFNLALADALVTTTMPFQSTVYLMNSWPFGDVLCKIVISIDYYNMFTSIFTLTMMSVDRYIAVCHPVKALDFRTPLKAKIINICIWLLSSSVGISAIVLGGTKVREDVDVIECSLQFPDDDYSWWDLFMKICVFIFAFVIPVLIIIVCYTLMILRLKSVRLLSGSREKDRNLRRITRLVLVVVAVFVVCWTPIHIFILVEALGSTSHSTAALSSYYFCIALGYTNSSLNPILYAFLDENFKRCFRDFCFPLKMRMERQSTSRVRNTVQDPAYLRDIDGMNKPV

The species named for test [1] is Homo sapiens. Put plainly: Selectivity ratio of Ki for human MOR expressed in CHO cell membranes to Ki for human KOR expressed in CHO cell membranes.
The species entered for test [2] is Homo sapiens. Put plainly: Selectivity ratio of Ki for human DOR expressed in CHO cell membranes to Ki for human KOR expressed in CHO cell membranes.
For test [3], the target named is Delta-type opioid receptor (Rattus norvegicus) (UniProt P33533). Put plainly: Agonist activity at rat DOR expressed in CHO cell membranes after 1 hr by [35S]GTPgammaS binding based liquid scintillation counting analysis relative to control. In general terms: Binding of GTPγS marks nucleotide exchange on a G protein.
The target in test [4] is Mu-type opioid receptor (Rattus norvegicus) (UniProt P33535). Put plainly: Agonist activity at rat MOR expressed in CHO cell membranes after 1 hr by [35S]GTPgammaS binding based liquid scintillation counting analysis relative to control.
Test [5] concerns the target Kappa-type opioid receptor (Homo sapiens) (UniProt P41145). As to the kind of experiment: Agonist activity at human KOR expressed in CHO cell membranes after 1 hr by [35S]GTPgammaS binding based liquid scintillation counting analysis relative to control.
The target is the same in test [6]. Put plainly: Agonist activity at human KOR expressed in CHO cell membranes at 10 uM after 1 hr by [35S]GTPgammaS binding based liquid scintillation counting analysis relative to control.
The target is the same in test [7]. As to the kind of experiment: Agonist activity at human KOR expressed in CHO cell membranes at 1 uM after 1 hr by [35S]GTPgammaS binding based liquid scintillation counting analysis relative to control.

On to `COc1cccc(C(=O)[C@@]2(C)C[C@@]34CC[C@]2(OC)[C@@H]2Oc5c(OC)ccc6c5[C@@]23CCN(CC2CC2)[C@@H]4C6)c1`, for which the Ratio Ki in test [1] was determined as 0.4; in test [2] it was 132.
For `COc1ccc(C(O)[C@@]2(C)C[C@@]34CC[C@]2(OC)[C@@H]2Oc5c(OC)ccc6c5[C@@]23CCN(CC2CC2)[C@@H]4C6)cc1` (stereo partly specified), in test [1], the Ratio Ki amounted to 0.6.
In the case of `COc1cccc(C(O)[C@@]2(C)C[C@@]34CC[C@]2(OC)[C@@H]2Oc5c(OC)ccc6c5[C@@]23CCN(CC2CC2)[C@@H]4C6)c1` (stereo partly specified), the Ratio Ki in test [1] came to 3.
For orientation: Emax means the size of the effect at its maximum, as opposed to the concentration needed. With `COc1ccc2c3c1O[C@H]1[C@@]4(OC)CC[C@@]5(C[C@]4(C)C(=O)c4ccccc4)[C@@H](C2)N(CC2CC2)CC[C@]315`, the results for the Emax in test [3], in test [4] and in test [5] were 182%, 198% and 213%, respectively. In addition, in test [1], the Ratio Ki is 9.
For the molecule `COc1ccc2c3c1O[C@H]1[C@@]4(OC)CC[C@@]5(C[C@]4(C)C(O)c4ccc(-c6ccccc6)cc4)[C@@H](C2)N(CC2CC2)CC[C@]315` (stereo partly specified), in test [1], the Ratio Ki came out at 0.06.
On the same count and under the same terms, in the case of `COc1ccc2c3c1O[C@H]1[C@@]4(OC)CC[C@@]5(C[C@]4(C)OC(C)=O)[C@@H](C2)N(CC2CC2)CC[C@]315` it was 0.8.
As for `COc1ccc2c3c1O[C@H]1[C@@]4(OC)CC[C@@]5(C[C@]4(C)CO)[C@@H](C2)N(CC2CC2)CC[C@]315`, the Emax came to 232% in test [3], 139% in test [6], 118% in test [7] and 218% in test [4]. Besides, the Ratio Ki in test [1] turned out to be 11.
`COc1ccc2c3c1O[C@H]1[C@@]4(OC)CC[C@@]5(C[C@]4(C)C(=O)c4ccc(-c6ccccc6)cc4)[C@@H](C2)N(CC2CC2)CC[C@]315`: the Emax came out at 198% in test [3] and 181% in test [5].
Turning to `COc1ccc2c3c1O[C@H]1[C@@]4(OC)CC[C@@]5(C[C@]4(C)C=O)[C@@H](C2)N(CC2CC2)CC[C@]315`, the Emax in test [3] came to 216%; in test [6] it was 155%; in test [7] it was 145%. The Ratio Ki in test [1] came out at 11.
Take `COc1ccc2c3c1O[C@H]1[C@@]4(OC)CC[C@@]5(C[C@]4(C)OC(=O)c4ccc(C(F)(F)F)cc4)[C@@H](C2)N(CC2CC2)CC[C@]315`: the Ratio Ki in test [1] came to 0.04.
Take `COc1ccc(C(=O)[C@@]2(C)C[C@@]34CC[C@]2(OC)[C@@H]2Oc5c(OC)ccc6c5[C@@]23CCN(CC2CC2)[C@@H]4C6)cc1`: the Emax in test [3] is 241%; in test [4], 237%; in test [5] it was 178%. Further, the Ratio Ki in test [1] came to 0.8.
As for `COc1ccc2c3c1O[C@H]1[C@@]4(OC)CC[C@@]5(C[C@]4(C)C(O)c4ccccc4)[C@@H](C2)N(CC2CC2)CC[C@]315` (stereo partly specified), the Ratio Ki in test [1] is 21.
For the molecule `COc1ccc2c3c1O[C@H]1[C@@]4(OC)C=C[C@@]5(C[C@@H]4C(=O)c4ccccc4)[C@@H](C2)N(CC2CC2)CC[C@]315`, the Emax turned out to be 225% in test [3], 202% in test [4] and 212% in test [5]. The Ratio Ki in test [1] was 339.
Consider `COc1ccc2c3c1O[C@H]1[C@@]4(OC)CC[C@@]5(C[C@]4(C)C(O)c4ccc(C(F)(F)F)cc4)[C@@H](C2)N(CC2CC2)CC[C@]315` (stereo partly specified), for which the Ratio Ki in test [1] stood at 1.4.
On to `COc1ccc2c3c1O[C@H]1[C@@]4(OC)CC[C@@]5(C[C@]4(C)C(=O)c4ccc(C(F)(F)F)cc4)[C@@H](C2)N(CC2CC2)CC[C@]315`, for which the Emax in test [3] was found to be 239%; in test [5], 175%.
Take `COc1ccc2c3c1O[C@H]1[C@@]4(OC)CC[C@@]5(C[C@]4(C)OC(=O)C(C)C)[C@@H](C2)N(CC2CC2)CC[C@]315`: the Ratio Ki in test [1] stood at 1.2.
Same read-out and setting: as for `COc1ccc2c3c1O[C@H]1[C@@]4(OC)CC[C@@]5(C[C@]4(C)OC(=O)c4ccccc4)[C@@H](C2)N(CC2CC2)CC[C@]315`, the figure is 0.06.
